Experimental findings from patent US12138309B2, “Topical formulations containing phthalocyanine photosensitizers” (MOLTENI THERAPEUTICS S.R.L., priority 2019, dated 2024) are described below.

A short description of data set [1]: Distribution of photosensitizer in pig buccal mucosa, cryomicrotome. Type of data set: in vitro ADME. The following applies: regardless of the formulation; 30 minutes and 5 hours.
The conditions of data set [2]: diethylene glycol monoethyl ether used as solvent.

Take “1,8(11),15(18),22(25)-Tetra[3-(N,N,N-trimethylammonium)phenoxy]zinc phthalocyaninate (II) tetrachloride [RLP068]”: in data set [1], the “accumulation in the first layers of the mucosa (up to 100 μm) compared to MRLP164” value is recorded as “accumulates in greater amount in the first layers of the mucosa”. In data set [2], the “protection of RLP068/Cl against thermal stress by the solvent” value was “not adequately protective against a thermal stress”.
